Screening results as filed in PubChem BioAssay.
Most compounds without a hit are left out; they make up all but 0.44% or so of the library.
Lamin A splicing = changes lamin A minigene splicing in HeLa cells | HeLa LMNA splicing GFP/RFP minigene ratio, 48 h | hit rate 0.01% among 200,000 | Potency, µM (highest dose often 46.1 µM), for the others: at the top dose ratio change, negative = inhibition, hits mostly inhibitors | AID 1487; active = well fitted inhibition curve with a large enough effect in the signal ratio, with a control signal flat, not every such curve was filed as active; inconclusive = small, poorly fitted or top-dose-only effect, or effect the other way, or a change in a side signal; the % refers to the signal ratio; also: % is scaled to controls: 0 for no effect and ±100 for the full control effect
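S3 HeLa cells stably expressing lamin A-EGFP splicing minigene plus DsRed2, 600 cells/well, 48 h compound exposure at 37C. Laser-scanning cytometry; analysed as GFP (500-530 nm)/RFP (575-640 nm) total intensity ratio; 0.5% DMSO vehicle.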
Rango release inh = inhibitors of RanGTP-induced Rango-importin beta complex dissociation. hit rate 0.071% among 340,000. Potency, µM (top dose mostly 46.1 µM), for inactives: at the top dose activity change, negative = inhibition. Biochemical FRET Rango-importin beta, RanGTP-induced dissociation. O95149+P62826. AID 540253; calls by dose curve; also: % of control where 0% means no effect; nearly all actives have a fitted effect of over 45% in size
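Rango (0.1 uM)–importin beta (0.25 uM) complex; RanGTP-RCC1 trigger; 45 min RT; CFP/YFP FRET read.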
Tb PFK block = inhibitors of T. brucei phosphofructokinase; O15648; T. brucei PFK, ADP-Glo luminescence; Potency, µM (doses to about 57.5 µM), for the others: top-dose activity, negative = inhibition, usual class: inhibitors; hit rate 0.17% among 330,000; AID 485367;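 also: 0% = uninhibited 1x PFK enzyme wells and -100% = no-enzyme wells; nearly all actives have a fitted effect of over 60% in size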
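Activity is normalized to no-enzyme wells (full inhibition) and 1.25 nM enzyme wells (no inhibition). Reaction: 0.5 mM F6P, 0.1 mM ATP, 45 min RT, ADP-Glo luminescence; concentration-response curves fitted and classed by quality.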
KinaseGlo FLuc = Kinase-Glo luciferase inhibition (counter-screen); Kinase-Glo luciferase, ATP luminescence, 8 min; hit rate 0.28% among 200,000; Potency, µM (series often up to 38.3 µM), for inactives: top-dose activity change, negative = inhibition, hits mostly inhibitors; Q27757; AID 1379; also: % is scaled to controls: 0 for no effect and ±100 for the full control effect; nearly all actives have a fitted effect of over 60% in size
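Compounds were added to a substrate mix at pH 7.2 (50 mM imidazole, 10 uM ATP, within the enzyme's linear range), followed by Kinase-Glo detection reagent; luminescence was measured after 8 minutes at ambient temperature.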
Rango-impB inh = Rango-importin beta binding inhibition | Rango CFP/YFP FRET sensor + importin beta, 45 min | Potency, µM (series often up to 92.2 µM), for inactives: at the highest dose inhibition of complex formation | hit rate 0.031% among 340,000 | AID 540263; calls by dose curve;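 also: 0% = DMSO wells and 100% = buffer wells lacking importin beta; nearly all actives have a fitted effect of over 15% in size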
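FRET biosensor (snurportin 1 IBB flanked by EYFP and cerulean), 50 nM, with compound 5 min, then 0.125 microM importin beta in PBS, 1 mM DTT, 0.02% Tween-20, 0.1% BSA. CFP/YFP ratio read after 45 min at room temperature; pre-read flags interference.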
BCR signal inh = inhibitors of chronic active B-cell receptor signaling | ABC-DLBCL IkBa-CBG/CBR reporter, luminescence ratio, 4 h | Potency, µM (top dose mostly 46.1 µM), without a hit: at the top dose activity change, negative = inhibition, hits mostly inhibitors | hit rate 0.05% among 340,000; active = well fitted inhibition curve with a large enough effect in the signal ratio, with a control signal flat, not every such curve was filed as active; inconclusive = small, poorly fitted or top-dose-only effect, or effect the other way, or a change in a side signal; the % refers to the signal ratio;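 also: plate controls were basal doxycycline-induced cells for no effect and cells given 10 µM MG132 for full effect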
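TMD8 ABC-DLBCL cells carrying doxycycline-inducible green luciferase fused to IkappaBalpha plus unfused red luciferase were exposed to compounds (up to 46 uM) for 4 hrs at 37C. Activity came from the overlap-corrected green/red luminescence ratio.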
* marks the source's active call; other numbers are inactive results; ? = inconclusive; . = no result given; [ ] = remark or other dose. Unless noted, calls follow the shape of the dose curve; as a rule, active = well fitted curve in the direction sought with a large enough effect; inconclusive = small, poorly fitted or top-dose-only effect, or another doubt; inactive = no such curve, though single readings can be large; an effect the other way counts as inactive or inconclusive. Potency is read from the fitted curve at half-maximal effect.

1. CCC1OC2(C)OC(=N)C1(C#N)C(C#N)(C#N)C2c1ccccc1 (stereo not drawn)
2. COc1ccc2nc(/N=C/c3c(C)[nH]n(-c4ccc(C)cc4)c3=O)sc2c1
3. COc1ccc2nc(/N=C\N(C)C)sc2c1
4. C=CCN(CC=C)c1cnn(-c2nc3ccccc3[nH]2)c(=O)c1Cl
5. O=c1c(Cl)c(NCCCO)cnn1-c1nc2ccccc2[nH]1
6. COc1ccc(OC)c(NC(=O)Cc2coc3ccc(C)cc23)c1
7. Clc1ccc2nc(-c3ccccc3)[nH]c2c1
8. Clc1ccc2nc(-c3ccc(Cl)nc3)[nH]c2c1

screen / no.,1,2,3,4,5,6,7,8
Lamin A splicing,-7.3%,-6.9%,10.4%,-9.5%,?,-6.6%,.,.
Rango release inh,8.2µM*,?,-14.1%,10.4%,-8.2%,-0.7%,.,1.5%
Tb PFK block,0.8%,0.0%,-0.5%,-2.9%,-2.7%,-8.7%,.,9.1%
KinaseGlo FLuc,-5.0%,10µM*,-8.4%,14.1µM*,11.2µM*,0.2%,11.2µM*,.
Rango-impB inh,?,?,2.5%,0.0%,?,-7.3%,.,1.7%
BCR signal inh,0.6%,-2.0%,-7.7%,?,?,4.9%,.,?

9. CC(C)(C)c1ccc(/C=N/NC(=S)NCc2ccccc2)cc1
10. C=CCNC(=S)N/N=C/c1ccc(C(C)(C)C)cc1
11. C=CCNC(=S)N/N=C/c1cn(C)c2ccccc12
12. COC(=O)C(C(=O)OC)=C(/C=C/N(C)C)N(C)C
13. COC(=O)C(C(=O)OC)=C(/C=C/C=C/N(C)C)N(C)C
14. CNC(=S)N(CCc1cccc(C)c1)Cc1cc2cc(OC)c(OC)cc2[nH]c1=O
15. Cc1cccc(N(CC(=O)NC(C)(C)C)C(=O)CNC(=O)c2cccs2)c1
16. CCc1cc(C(=O)N2CCCC(C(=O)c3ccc(Cl)cc3)C2)no1 (stereo not drawn)

screen / no.,9,10,11,12,13,14,15,16
Lamin A splicing,?,?,.,-4.9%,8.8%,-13.7%,?,.
Rango release inh,-3.2%,-4.2%,19.7%,-2.7%,9.2µM*,0.1%,12.6%,0.4%
Tb PFK block,-1.2%,-5.1%,-1.8%,23.0%,-6.3%,3.4%,-0.1%,-6.1%
KinaseGlo FLuc,1.0%,-0.3%,.,-0.9%,-2.4%,0.1%,3.6%,.
Rango-impB inh,3.9%,-2.3%,0.9%,0.3%,?,4.3%,5.5%,2.2%
BCR signal inh,5.0%,11.2µM*,17.8µM*,2.2%,-8.1%,-11.3%,2.1%,4.7%

17. COc1cccc2c1C(=O)c1c(O)c3c(c(O)c1C2=O)CC(O)(C(=O)CO)CC3OC1CC(N(C)C)C(O)C(C)O1 (stereo not drawn)
18. CC1(C)O[C@@H]2[C@@H](O1)C(c1ccccc1)(c1ccccc1)OP(=O)(O)OC2(c1ccccc1)c1ccccc1
19. CCC(C)c1ccc(O[C@@H]2O[C@H](CO)[C@@H](O)[C@H](O)[C@H]2NC(C)=O)cc1 (stereo partly drawn)
20. O=C(CN1C(=O)NC2(CCCCC2)C1=O)Nc1ccc(F)cc1
21. NC(=O)c1ccc(NC(=O)CN2C(=O)NC3(CCCCCCC3)C2=O)cc1
22. CC1CN(S(=O)(=O)c2cn(C)c(=O)n(C)c2=O)CC(C)O1 (stereo not drawn)
23. O=C(N/N=C/c1ccc(N2CCOCC2)s1)c1ccccc1Cl
24. COc1ccc(CN(C(=O)Nc2cccc(OC)c2)C2CCN(C(C)=O)CC2)cc1

screen / no.,17,18,19,20,21,22,23,24
Lamin A splicing,.,.,.,11.0%[46 µM],.,0.3%,?,-9.2%[46 µM]
Rango release inh,19.7%,.,.,-0.6%,-12.7%,0.9%,?,.
Tb PFK block,.,.,.,-1.8%,0.0%,2.8%,5.4%,.
KinaseGlo FLuc,.,-0.2%,-4.7%,0.2%,.,18.1%,0.0%,.
Rango-impB inh,58µM*,.,.,0.2%,2.06µM*,1.0%,?,.
BCR signal inh,.,.,.,?,-3.2%,0.0%,?,-24.8%

25. CCOc1cccc2cc(-c3nnc(NCc4ccc5c(c4)OCO5)s3)c(=O)oc12
26. O=C(Nc1nccs1)c1cc2c(s1)CCCCC2
27. Cn1c(CO)cnc1SCc1c(Cl)cccc1Cl
28. O/N=C/c1cc(Br)ccc1OCc1ccc(F)cc1
29. CCC(=O)Nc1cccc(-c2nc3ccccc3o2)c1
30. CC(=O)Nc1nc2ccc(-c3nc4ccccc4o3)cc2s1
31. C=CCNC(=O)Nc1ccc(OCC)cc1
32. c1ccc(-c2nc3cnccn3c2Nc2ccc3c(c2)OCCO3)cc1

screen / no.,25,26,27,28,29,30,31,32
Lamin A splicing,?,-13.9%,-6.8%,.,-2.6%,-12.6%,3.7%,-9.3%
Rango release inh,1.3µM*,1.6%,0.7%,16.4µM*,2.5%,-8.0%,18.7%,-21.7%
Tb PFK block,1.3%,-22.0%,3.2%,.,-6.6%,9.5%,-9.3%,2.1%
KinaseGlo FLuc,1.4%,7.08µM*,5.0%,.,3.7%,2.4%,-4.1%,-1.6%
Rango-impB inh,?,3.7%,-2.3%,?,1.4%,-1.1%,4.9%,-3.0%
BCR signal inh,-18.0%,?,-0.8%,.,14.1%,14.6µM*,-0.3%,-6.4%

33. Oc1ccc(-c2nc3cnccn3c2Nc2ccc3c(c2)OCCO3)cc1
34. Oc1ccc(Cl)cc1N=Nc1ccccc1
35. Cc1ccc(O)c(N=Nc2ccccc2)n1
36. CCOC(=O)CN1C(=O)S/C(=C/C=C/c2ccc(N(C)C)cc2)C1=O
37. CCOC(=O)CN1C(=O)S/C(=C/c2ccc3c(c2)n(C)c(=O)n3C)C1=O
38. COc1cc(/C=C2\C(=N)N3N=C(S(C)(=O)=O)SC3=NC2=O)ccc1OC(=O)c1ccco1
39. N#C/C(=C\c1cccc(NC(=O)c2ccccc2Cl)c1)C(=O)NCCc1ccccc1
40. Cc1cc2c(cc(C(=O)OCC(=O)NCc3cccs3)n2C(C)C)o1

screen / no.,33,34,35,36,37,38,39,40
Lamin A splicing,?,.,?,-13.2%,13.4%,.,?,-18.9%
Rango release inh,?,-12.1%,-20.5%,11.8%,0.0%,5.8µM*,-12.4%,-10.6%
Tb PFK block,4.5%,1.5%,.,3.4%,-4.0%,0.6%,-7.1%,-9.9%
KinaseGlo FLuc,2.9%,.,2.82µM*,-5.0%,0.6%,.,0.5%,-3.1%
Rango-impB inh,-2.2%,3.1%,6.1%,5.8µM*,-2.0%,?,?,-2.1%
BCR signal inh,17.8µM*,6.0%,.,-2.7%,-0.1%,1.1%,20.6µM*,8.2µM*

Retrieved one by one from above, three records:
40. Cc1cc2c(cc(C(=O)OCC(=O)NCc3cccs3)n2C(C)C)o1
36. CCOC(=O)CN1C(=O)S/C(=C/C=C/c2ccc(N(C)C)cc2)C1=O
35. Cc1ccc(O)c(N=Nc2ccccc2)n1

screen / no.,40,36,35
Lamin A splicing,-18.9%,-13.2%,?
Rango release inh,-10.6%,11.8%,-20.5%
Tb PFK block,-9.9%,3.4%,.
KinaseGlo FLuc,-3.1%,-5.0%,2.82µM*
Rango-impB inh,-2.1%,5.8µM*,6.1%
BCR signal inh,8.2µM*,-2.7%,.

(next part)
41. CCOC(=O)C1CCCN(c2nc3ccccc3nc2C(C#N)C(=O)OCC)C1 (stereo not drawn)
42. CCOC(=O)C1CCN(c2nc3ccccc3nc2C(C#N)C(=O)NCCc2ccccc2)CC1 (stereo not drawn)
43. COc1ccc(-c2nc3ccccc3[nH]2)cc1
44. c1csc(-c2nc3ccccc3[nH]2)c1
45. Cc1ccc2nc(-c3ccccn3)[nH]c2c1
46. Cc1ccc(-c2nc3ccccc3[nH]2)s1
47. c1ccc(-c2nc3ccccc3[nH]2)cc1
48. Cc1cc(-c2nc3ccccc3[nH]2)ccc1N

screen / no.,41,42,43,44,45,46,47,48
Lamin A splicing,-5.4%,?,2.9%,4.2%,.,9.4%,.,.
Rango release inh,?,.,8.7%,6.0%,2.2%,27.6%,5.0%,26.1%
Tb PFK block,-1.7%,9.53µM*,-14.3%,-3.3%,-12.7%,-19.8%,-7.9%,1.6%
KinaseGlo FLuc,15.3%,-1.0%,8.91µM*,-15.0%,.,12.6µM*,.,10µM*
Rango-impB inh,?,.,-0.4%,7.0%,2.7%,1.8%,-2.4%,3.0%
BCR signal inh,1.9%,?,?,?,?,?,?,?
